Molecular target: Bcl-2 (Homo sapiens, UniProt P10415)
Assay: binding affinity to anti-apoptotic Bcl-2 family proteins

The chains behind the UniProt entries cited, without tags or fusion partners.
UniProt P10415, whole entry: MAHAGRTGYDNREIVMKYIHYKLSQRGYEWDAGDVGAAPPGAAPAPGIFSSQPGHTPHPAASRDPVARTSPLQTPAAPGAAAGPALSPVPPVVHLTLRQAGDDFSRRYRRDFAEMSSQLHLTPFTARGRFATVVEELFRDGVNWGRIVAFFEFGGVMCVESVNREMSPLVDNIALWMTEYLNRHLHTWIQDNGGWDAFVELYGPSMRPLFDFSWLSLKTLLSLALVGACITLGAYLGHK

CC1(C)CCC(c2ccc(Cl)cc2)=C(CN2CCN(c3ccc(C(=O)NS(=O)(=O)c4ccc(N[C@H](CCN5CCOCC5)CSc5ccccc5)c(S(=O)(=O)C(F)(F)F)c4)cc3)CC2)C1 [ABT-263, N-(4-(4-((2-(4-chlorophenyl)-5,5-dimethyl-1-cyclohex-1-en-1-yl)methyl)piperazin-1-yl)benzoyl)-4-(((1R)-3-(morpholin-4-yl)-1-((phenylsulfanyl)methyl)propyl)amino)-3-((trifluoromethyl)sulfonyl)benzenesulfonamide]
Ki: ≤ 1 nM
